From BindingDB's records for patent US10322118 (Dartmouth College, 2019) come the findings set out here.

This experiment concerns the target T1, Putative hydrolase (Pseudomonas aeruginosa (strain UCBPP-PA14), UniProt A0A0H2ZD27).
T1 sequence (A0A0H2ZD27 whole entry): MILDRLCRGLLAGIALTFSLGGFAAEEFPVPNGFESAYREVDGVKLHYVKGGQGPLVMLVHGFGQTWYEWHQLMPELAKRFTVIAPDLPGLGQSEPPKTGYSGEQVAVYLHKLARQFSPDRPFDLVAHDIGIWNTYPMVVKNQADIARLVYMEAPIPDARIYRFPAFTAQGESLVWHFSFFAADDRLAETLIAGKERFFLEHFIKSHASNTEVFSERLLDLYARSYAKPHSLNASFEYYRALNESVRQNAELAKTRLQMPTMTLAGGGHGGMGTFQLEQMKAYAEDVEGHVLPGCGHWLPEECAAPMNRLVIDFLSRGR
The experiment in a line: Biochemical Characterization of Cif Inhibitors.

Usually IC50 stands for the concentration that inhibits the measured activity by half. Higher therefore signals lower potency.

Compound `CC(C)c1cc(Oc2c(Br)cc(NC(=O)CC(=O)O)cc2Br)ccc1O` [US10322118, Entry 8b] yielded an IC50 of 2700 nM.
